# Test results from PubChem BioAssay AID588334 (Broad Institute, 2011).
# Only a part is listed here, and it is no random draw. Activity calls are given as the source filed them.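 Rule for the calls: active = mean activation of at least 80% with every replicate also reaching 80%; inconclusive = mean reaches 80% but some replicate falls short; inactive = the rest.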
# Experiment: activators of MITF-driven TRPM1 promoter reporter, primary screen, cell-based, SK-MEL-5, luciferase, single point (AID 588334);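 note: 0% = neutral control wells and 100% = parthenolide positive control wells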
# Details: SK-MEL-5 TRPM1-promoter luciferase, 24 h; at 12.5 µM; active compounds read high; % of positive control, neutral wells = 0
row,SMILES,activation
1,CN1CCCC(OC(=O)C(c2ccccc2)c2ccccc2)C1 (configuration not stated),inactive: 4.77%
2,Clc1ccc(Cl)c(NC2=NCC(CBr)S2)c1 (configuration not stated),inactive: -9.01%
3,COc1ccccc1OP(=O)(Nc1ccc(C)cn1)Oc1ccccc1OC,inactive: -4.71%
4,CN(C(=O)Cc1ccc(Cl)c(Cl)c1)[C@H]1CCCC[C@H]1N1CCCC1,inactive: 7.49%
5,Cc1ccc(N/C(=N/P(=O)(N2CCOCC2)N2CCOCC2)N2CCOCC2)cc1,inactive: -3.13%
6,NC(=O)c1cc([N+](=O)[O-])cc([N+](=O)[O-])c1N,inactive: -7.02%
7,Oc1ccccc1CNc1ccccn1,inactive: 16.5%
8,O=C(NC(Sc1ccncn1)C(Cl)(Cl)Cl)c1ccccc1 (configuration not stated),inactive: -8.03%
9,Nc1cc(N)c2nonc2c1[N+](=O)[O-],inactive: -7%
10,CC(C)CC(=O)NC(Sc1ccc(Cl)cc1)C(Cl)(Cl)Cl (configuration not stated),inactive: -2.36%
11,Cc1cc(SC(NC(=O)c2ccc(F)cc2)C(Cl)(Cl)Cl)ncn1 (configuration not stated),inactive: 8.63%
12,CCOP(=O)(Nc1ccccc1)OCC,inactive: -4.7%
13,CN(C(=O)Cc1ccc(Cl)c(Cl)c1)[C@H]1CCCC[C@@H]1N1CCCC1,inactive: 4.03%
14,CC(=O)Nc1ccc([As](=O)(O)O)cc1,inactive: 2.08%
15,O=C(O)c1ccccc1[As](=O)(O)O,inactive: 0.207%
16,CCCC1OP(N)(=O)OCC1CC (configuration not stated),inactive: 4.5%
17,Nc1cccc2ccc([As](=O)(O)O)cc12,inactive: -13.5%
18,CCN(N=Nc1nonc1N)c1nonc1N,inactive: 7.32%
19,O=C(Nc1cc([As](=O)(O)O)ccc1O)c1ccccc1,inactive: 1.8%
20,O=P1(N(CCCl)CCCl)OCCCS1 (configuration not stated),inactive: 5.31%
21,O=C(O)CNc1ccc([As](=O)(O)O)cc1,inactive: -0.782%
22,COC(=O)C1(C)COP(=O)(Nc2ccccc2)OC1 (configuration not stated),inactive: 0.834%
23,O=[N+]([O-])c1cccc(NC2=NCC(CBr)S2)c1 (configuration not stated),inactive: -0.64%
24,O=[N+]([O-])c1ncn(CCn2ncnc2[N+](=O)[O-])n1,inactive: 2.23%
25,CC(C)(C)C(=O)NC(Sc1ccncn1)C(Cl)(Cl)Cl (configuration not stated),inactive: 5.49%
26,Cc1ccc(NP(=O)(Oc2ccccc2)Oc2ccccc2)nc1,inactive: 4.54%

row,SMILES,activation
1,CCc1nc2c(n1)c1c(non1O)c1c2no[n+]1[O-],inactive: -60.1%
2,O=[N+]([O-])c1cc([N+](=O)[O-])c(CCNc2ccccc2)c([N+](=O)[O-])c1,inactive: -38%
3,O=[N+]([O-])c1cccc2n[nH]nc12,inactive: 9.2%
4,CC(=O)N1C2C3N(C(C)=O)C1C1N(C(C)=O)C(C(N1C(C)=O)N3C(C)=O)N2C(C)=O,inactive: -5.35%
5,COc1ccc(C2=NCC(CBr)S2)cc1 (configuration not stated),inactive: 16.8%
6,CC1CCN(C(=O)Oc2c(Cl)cc(Cl)c3cccnc23)CC1,inactive: 4.03%
7,CC(C)=N/N=C(\N)N[N+](=O)[O-],inactive: -5.45%
8,CN(C)C(=O)OCCc1n(C)cc[n+]1C,inactive: 11%
9,CCN(/C(=N/P(=O)(N1CCOCC1)N1CCOCC1)N1CCOCC1)c1ccc(OC)cc1,inactive: 5.64%
10,Nc1ccc([As](=O)(O)c2ccc(N)cc2)cc1,inactive: -11.8%
11,CC(C)C(=O)NC(Sc1ccccc1)C(Cl)(Cl)Cl (configuration not stated),inactive: -2.77%
12,O=P(Nc1nccs1)(c1ccccc1)c1ccccc1,inactive: -2.5%
13,O=P(Nc1nc2ccccc2s1)(c1ccccc1)c1ccccc1,inactive: 11.9%
14,C[C@H]1OP(=O)(Oc2ccccc2)[C@H](O)[C@H](O)[C@H]1N=[N+]=[N-] (some centres not stated),inactive: -4.43%
15,O=P(Nc1ccccn1)(c1ccc(Br)cc1)c1ccc(Br)cc1,inactive: 2.88%
16,COc1ccc(N)c([N+](=O)[O-])c1[N+](=O)[O-],inactive: 10.6%
17,C(Cc1nn[nH]n1)Cc1nn[nH]n1,inactive: 1.58%
18,Nc1ccc([As](=O)(O)c2ccc([N+](=O)[O-])cc2)cc1,inactive: 2.65%
19,O=[As](O)(c1ccccc1)c1ccc(O)cc1,inactive: 1.43%
20,CC(=O)NC(SC(=S)N(C)C)C(Cl)(Cl)Cl (configuration not stated),inactive: -36%
21,O=[N+]([O-])c1ncn(CCn2cnc([N+](=O)[O-])n2)n1,inactive: -7.55%
22,O=P1(N(CCCl)CCCl)OCCC2CCCCN21 (configuration not stated),inactive: -9.59%
23,c1ccc(-c2nn[nH]n2)c(-c2nn[nH]n2)c1,inactive: 1.51%
24,CCNC(=S)/N=C(\N)N[N+](=O)[O-],inactive: 1.6%
25,O=C(NC1CCS(=O)(=O)C1)NP(=S)(Oc1ccccc1)Oc1ccccc1 (configuration not stated),inactive: -3.79%
26,CC(NC(=O)COC(=O)C(O)(c1ccccc1)c1ccccc1)c1ccccc1 (configuration not stated),inactive: -2.9%

row,SMILES,activation
1,O=c1c2cc([N+](=O)[O-])ccc2[nH]c2c([N+](=O)[O-])cc([N+](=O)[O-])cc12,inactive: -72.3%
2,O=C(OC1CN2CCC1CC2)c1ccccc1 (configuration not stated),inactive: 1.34%
3,CCC(=O)N1C2C3N(C(=O)CC)C1C1N(C(=O)CC)C(C(N1C(=O)CC)N3C(=O)CC)N2C(=O)CC,inactive: 8.73%
4,COC(=O)c1cc2c(s1)N=C(c1ccccc1)N(C)P2(=O)N1CCOCC1 (configuration not stated),inactive: 4.26%
5,CC(=O)NC(SC(=S)N(CC(C)C)CC(C)C)C(Cl)(Cl)Cl (configuration not stated),inactive: -8.17%
6,Cc1ccc(OP(=O)(Nc2ccccn2)Oc2ccc(C)cc2)cc1,inactive: -10.4%
7,CC(C)(C)C(=O)NC(Sc1ccccc1)C(Cl)(Cl)Cl (configuration not stated),inactive: 7.65%
8,CCc1cc(O)c([N+](=O)[O-])c(C)c1[N+](=O)[O-],inactive: -0.579%
9,CCOc1ccc(C2=NCC(CBr)S2)cc1 (configuration not stated),inactive: 2.19%
10,CC(=O)Nc1ccc([As](=O)(O)O)c(O)c1,inactive: 5.17%
11,CC(=O)Nc1ccc(Oc2c([N+](=O)[O-])cc([N+](=O)[O-])cc2[N+](=O)[O-])cc1,inactive: -1.96%
12,Cc1ccccc1CN(C)C(=O)COC(=O)C(O)(c1ccccc1)c1ccccc1,inactive: 9.89%
13,C[C@H]1OP(=O)(Oc2ccccc2)C[C@@H]2O[C@@H]21 (some centres not stated),inactive: 0.236%
14,C[C@@H]1C=CCP(=O)(Oc2ccccc2)O1 (some centres not stated),inactive: 1.36%
15,CC(=O)c1ccc(N2CC2c2ccncc2)cc1 (configuration not stated),inactive: -12.7%
16,N#C/C(=C\c1ccc(N(CCBr)CCBr)cc1)C(N)=O,inactive: -0.356%
17,COC(=O)C1(C)COP(=O)(NCc2ccccc2)OC1 (configuration not stated),inactive: 4.5%
18,Cc1cccc(OCC(=O)OC2CN3CCC2CC3)c1 (configuration not stated),inactive: -3.91%
19,O=[As](O)(c1cccc(O)c1)c1cccc(O)c1,inactive: -3.28%
20,O=[As](O)(O)c1cccnc1,inactive: -10.4%
21,COc1cc(C(=O)NCC2(N3CCOCC3)CCCCC2)cc(Cl)c1OC(C)C,inactive: -9.97%
22,CS(=O)(=O)c1ccc(Cl)c(NC(=O)COC(=O)C(O)(c2ccccc2)c2ccccc2)c1,inactive: -2.9%
23,COc1cc(C2NCCC3(OCCO3)C2(C)C)cc(OC)c1OC (configuration not stated),inactive: 0.514%
24,CCOP(=O)(Nc1cccc2ccccc12)OCC,inactive: -5.12%
25,Cc1ccc(NCCc2c([N+](=O)[O-])cc([N+](=O)[O-])cc2[N+](=O)[O-])cc1,inactive: -7.04%
26,Nc1cccc2c([As](=O)(O)O)cccc12,inactive: 13.1%

row,SMILES,activation
1,CCCOP(=S)(Nc1nc(N)cc(=O)[nH]1)OCCC,inactive: -5.7%
2,Nc1ccccc1[As](=O)(O)c1ccccc1,inactive: -8.7%
3,O=C(O)COc1ccc([As](=O)(O)O)cc1[N+](=O)[O-],inactive: -1.08%
4,CCOP1(=S)c2c(C)nn(CCC#N)c2N=C(c2ccccc2F)N1C (configuration not stated),inactive: -0.599%
5,O=P(Nc1nccs1)(Oc1ccccc1)Oc1ccccc1,inactive: -0.54%
6,O=P(Nc1nccs1)(c1ccccc1)c1nc2ccccc2s1 (configuration not stated),inactive: -11.2%
7,CS(=O)(=O)c1cc([N+](=O)[O-])c2no[n+]([O-])c2c1,inactive: -11.8%
8,N#CCCN(C(=O)COC(=O)C(O)(c1ccccc1)c1ccccc1)c1ccc(F)cc1,inactive: -2.27%
9,CCOP1(=S)c2c(C)nn(CCC#N)c2N=C(c2ccc(F)cc2)N1C (configuration not stated),inactive: -9.65%
10,CN(C(=O)Cc1ccccc1)[C@@H]1CC[C@]2(CCCO2)C[C@H]1N1CCCC1,inactive: 14.3%
11,O=[N+]([O-])c1ccc2c(c1)nnn2O,inactive: -5.25%
12,CN(C(=O)Cc1ccc(Cl)c(Cl)c1)[C@H]1CC[C@@]2(CCCO2)C[C@@H]1N1CCCC1,inactive: 9.08%
13,NC(=O)Nc1ccc([As](=O)(O)O)cc1,inactive: 1.5%
14,CN(C)C1(CNC(=O)c2ccc(S(C)(=O)=O)cc2)CCCCC1,inactive: -8.74%
15,CCCC1OP(=O)(Nc2ccccc2)OCC1CC (configuration not stated),inactive: 10.6%
16,Cc1nn(-c2ccccc2)c2c1P(=O)(N1CCOCC1)N(C)C(c1ccccc1)=N2 (configuration not stated),inactive: 0.216%
17,CC1CCC(C(C)C)C(OP(=O)(Nc2ccccn2)c2ccccc2)C1 (configuration not stated),inactive: -0.875%
18,Cc1ccc(C(=O)OC2CN3CCC2CC3)cc1 (configuration not stated),inactive: -1.35%
19,Nc1cccc([As](=O)(O)c2ccccc2)c1,inactive: 7.63%
20,Cc1ccc(OCC(=O)OC2CN3CCC2CC3)cc1 (configuration not stated),inactive: 5.78%
21,O=[As](O)(c1cccs1)c1cccs1,inactive: -8.81%
22,O=P1(Nc2ccc(Br)cn2)COc2ccccc2OC1,inactive: -11.2%
23,CC(C)(C)C(=O)NC(Sc1ncccn1)C(Cl)(Cl)Cl (configuration not stated),inactive: -25.8%
24,CCOP(=O)(NC(=NC(C)c1ccccc1)NC(C)c1ccccc1)OCC (configuration not stated),inactive: -3.11%
